High-throughput results as filed in PubChem BioAssay.
miR-21 reporter – raises the signal of a miR-21 reporter | HeLa miR-21 FLuc reporter, luciferase, 48 h | Potency, µM (highest dose often 38.3 µM), for inactives: at the highest dose reporter change, positive = more light | 340,000 tested, under 10 active | AID 2288; active = well fitted rising curve with a large enough effect; inconclusive = small, poorly fitted or top-dose-only effect; inactive = no such curve, though single readings can be large or run the other way;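 also: % of control where 0% means no effect; miR-21 action dims this reporter so a rising signal means less miR-21 action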
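HeLa cells stably expressing CMV-driven firefly luciferase with a downstream miR-21 binding sequence, endogenously expressing miR-21, were treated with titrations (up to about 40uM final) for 48 hours at 37 degree Celsius. Luciferase luminescence was read after lysis.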
TDP1 cell noCPT – qHTS for Inhibitors of human tyrosyl-DNA phosphodiesterase 1 (TDP1): qHTS in cells in absence of CPT; DT40 Tdp1-/- hTDP1 cells, no CPT, ATP luminescence, 48 h; Potency, µM (series often up to 46.2 µM), inactives show at the highest dose activity change, negative = growth inhibition, most hits filed as inhibitors; 420,000 compounds, 15% hits; AID 686978, 2013; also: potency is read from the fitted curve at half-maximal effect; % is scaled to controls: 0 for no effect and ±100 for the full control effect; nearly all actives have a fitted effect of over 55% in size
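Cells were dispensed at 400 per well, compounds added by pin tool, plates incubated ≥48 hr at 37 °C, then CellTiter-Glo added for 30 min at room temperature before luminescence reading. Line: DT40 Tdp1-/- complemented with hTDP1; camptothecin omitted.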
DT40 TDP1 CPT – DT40-hTDP1 cell growth loss with CPT. 420,000 compounds, 12% hits. chicken DT40 Tdp1-/-;hTDP1 cells + 20 nM CPT, ATP luminescence, 48 h. Potency, µM (doses to about 46.2 µM), for inactives: at the highest dose activity change, negative = growth inhibition, actives largely listed as inhibitors; also: potency is read from the fitted curve at half-maximal effect; % is scaled to controls: 0 for no effect and ±100 for the full control effect; nearly all actives have a fitted effect of over 55% in size
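Chicken DT40 Tdp1-/- cells complemented with human TDP1, 400 cells/well, exposed to compounds plus 20 nM camptothecin for at least 48 h at 37 C; viability read as ATP content by CellTiter-Glo luminescence.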
uPA generation – inhibitors of cell surface uPA generation. cell surface uPA generation assay, qHTS. Potency, µM (top dose mostly 38.3 µM), for inactives: top-dose activity change, negative = inhibition, actives largely listed as inhibitors. 330,000 compounds, 0.31% hits. AID 540303; active = well fitted inhibition curve with a large enough effect; inconclusive = small, poorly fitted or top-dose-only effect; inactive = no such curve, though single readings can be large or run the other way; tested in mouse RAW 264.7 cells; also: potency is read from the fitted curve at half-maximal effect; % is scaled to controls: 0 for no effect and ±100 for the full control effect; nearly all actives have a fitted effect of over 55% in size
TDP1 block – inhibitors of human tyrosyl-DNA phosphodiesterase TDP1. recombinant TDP1, AlphaScreen DNA substrate cleavage. AID 485290. Potency, µM (highest dose often 130 µM), for inactives: top-dose activity change, negative = inhibition, actives largely listed as inhibitors. 350,000 compounds, 0.28% hits. Q9NUW8; also: potency is read from the fitted curve at half-maximal effect; % is scaled to controls: 0 for no effect and ±100 for the full control effect; nearly all actives have a fitted effect of over 40% in size
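Steps: enzyme plus compound, 15 min RT; add biotin/phosphotyrosine-FITC oligonucleotide (15 nM final), react 5 min; add donor/acceptor beads (10 ug/ml final), 10 min; read AlphaScreen. Tdp1 at 1 nM final.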
Numbers without * were called inactive; ? = inconclusive; . = no result given; ! = repeats disagree; [ ] = dose if it differs, or a comment. Most compounds without a hit are left out; they make up all but 16% or so of the library. Unless noted, calls follow the shape of the dose curve; as a rule, active = well fitted curve in the direction sought with a large enough effect; inconclusive = small, poorly fitted or top-dose-only effect, or another doubt; inactive = no such curve, though single readings can be large; an effect the other way counts as inactive or inconclusive.

Keys – A = miR-21 reporter; B = TDP1 cell noCPT; C = DT40 TDP1 CPT; D = uPA generation; E = TDP1 block
COc1ccc(OC)c(N2Cc3ccccc3C2)c1
  A: -2% | B: ? | C: ? | D: 5% | E: 3%[56.1 µM]
COc1ccccc1N1CCN(C(=O)Cn2c(=O)n3nc(-c4cccc(F)c4)nc3c3ccccc32)CC1
  A: -1% | B: -13% | C: 0% | D: . | E: 3%
COc1ccccc1OCC(=O)N1CCN(C(=O)COc2ccccc2OC)CC1
  A: 2% | B: 6% | C: 8% | D: -2% | E: .
COc1ccccc1N1CCN(C(=O)COc2cccc3ccccc23)CC1
  A: -16% | B: ? | C: 23µM* | D: 0% | E: 4%
COc1ccccc1N1CCN(C(=O)Cn2c(=O)nc(-c3ccccc3)c3ccccc32)CC1
  A: 3% | B: 15µM* | C: ? | D: . | E: -1%
O=C(CCCCCN1C(=O)c2cccc3cccc(c23)C1=O)N1CCOCC1
  A: -16% | B: ? | C: -2% | D: 1% | E: 8%
Cc1ccc(S(=O)(=O)N2C[C@H]3N(C(=O)OC(C)C)N(C(=O)OC(C)C)C[C@H](OC(=O)Nc4cccs4)[C@@]3(O)C2)cc1
  A: . | B: 23µM* | C: ? | D: . | E: .
COC(=O)[C@H]1C[C@H](OC(=O)NCc2ccc(OC)c(OC)c2)[C@@]2(O)CN(S(=O)(=O)c3ccc(C)cc3)CC2[C@H]1C(=O)OC (stereo partly drawn)
  A: . | B: ? | C: -14% | D: . | E: .
COc1ccc(CNC(=O)O[C@H]2CN(C(=O)OC(C)C)N(C(=O)OC(C)C)[C@@H]3CN(S(=O)(=O)c4ccc(C)cc4)C[C@]23O)cc1OC
  A: . | B: 23µM* | C: ? | D: . | E: .
Cc1ccc(S(=O)(=O)N2C[C@H]3N(C(=O)OC(C)C)N(C(=O)OC(C)C)C[C@H](OC(=O)NCc4ccccc4F)[C@@]3(O)C2)cc1
  A: . | B: 23µM* | C: ? | D: . | E: .
COc1cccc(N2CCN(C(=S)NCCc3ccccc3)CC2)c1
  A: -6% | B: -26% | C: -17% | D: 2% | E: 7%
O=C1C=CC(=O)C(C2=C3C(=O)N(CCc4ccccc4)CC(=O)N3CCC2)=C1
  A: ? | B: 1.3µM* | C: 1.3µM* | D: 4% | E: 3%
O=C1CC2(CCCCC2)CC(=O)N1CCc1ccccc1
  A: . | B: -27% | C: -29% | D: -2% | E: .
Nc1nc2[nH]c(=S)[nH]c2c(=O)[nH]1
  A: . | B: 2% | C: 3% | D: . | E: 1%
CCCCc1ccc(S(=O)(=O)N/N=C(/C)c2ccncc2)cc1
  A: 14% | B: ? | C: 16µM* | D: -6% | E: 2%
CCOC(=O)C1CCCN(C(=O)C2CCN(C(=O)Nc3ccccc3)CC2)C1 (stereo not drawn)
  A: . | B: -24% | C: -9% | D: 0% | E: .
Oc1ccc2cc(Br)ccc2c1CN1CCCC1
  A: -2% | B: 23µM* | C: 28% | D: -6% | E: 3%
Oc1ccc2ccccc2c1CN1CCCC1
  A: 2% | B: -14% | C: 1% | D: -9% | E: 8%
O=C(NCc1cccnc1)/C(=C/c1ccc(-c2cccc(C(F)(F)F)c2)o1)NC(=O)c1ccccc1
  A: 13% | B: 18µM* | C: 13µM* | D: -5% | E: 8%
Cc1ccc(C(=O)N/C(=C/c2ccc(-c3cc(C(F)(F)F)ccc3Cl)o2)C(=O)NCc2cccnc2)cc1
  A: 24% | B: 23µM* | C: ? | D: -3% | E: 2%
Cc1ccc(C(=O)N/C(=C\c2ccco2)C(=O)NCc2cccnc2)cc1
  A: -2% | B: -23% | C: 4% | D: -5% | E: 0%
O=C(NCc1cccnc1)/C(=C/c1ccc(Cl)cc1)NC(=O)c1ccccc1
  A: 2% | B: -24% | C: 23µM* | D: 22% | E: 8%
Cc1ccc(S(=O)(=O)NCC2NCCc3ccccc32)cc1 (stereo not drawn)
  A: -18% | B: 23µM* | C: -9% | D: -3% | E: 6%
Cn1c(-c2ccc3ccccc3n2)nc2cnccc21
  A: -58% | B: 15µM* | C: 18µM* | D: -20% | E: 6%
COc1cc(OC)c(-c2nc3cnccc3n2C)cc1OC
  A: -16% | B: 0% | C: 6% | D: . | E: 7%

Fetched by compound from the list above (4):
Keys – A = miR-21 reporter; B = TDP1 cell noCPT; C = DT40 TDP1 CPT; D = uPA generation; E = TDP1 block
O=C1CC2(CCCCC2)CC(=O)N1CCc1ccccc1
  A: . | B: -27% | C: -29% | D: -2% | E: .
COc1ccccc1N1CCN(C(=O)Cn2c(=O)nc(-c3ccccc3)c3ccccc32)CC1
  A: 3% | B: 15µM* | C: ? | D: . | E: -1%
COc1ccc(OC)c(N2Cc3ccccc3C2)c1
  A: -2% | B: ? | C: ? | D: 5% | E: 3%[56.1 µM]
CCCCc1ccc(S(=O)(=O)N/N=C(/C)c2ccncc2)cc1
  A: 14% | B: ? | C: 16µM* | D: -6% | E: 2%

New compounds follow
Keys – A = miR-21 reporter; B = TDP1 cell noCPT; C = DT40 TDP1 CPT; D = uPA generation; E = TDP1 block
CCCCOC(=O)c1nc[nH]c1C(=O)OCCCC
  A: -1% | B: 5% | C: 7% | D: . | E: 4%
CCOc1cc(NC(=O)c2ccccc2[N+](=O)[O-])c(OCC)cc1NC(=O)CC(C)C
  A: -3% | B: -16% | C: -9% | D: -2% | E: 1%
CC(=O)N(O)CCCCCNC(=O)CCC(=O)N(O)CCCCCNC(=O)CCC(=O)N(O)CCCCCN
  A: 19% | B: 12µM*! | C: 21µM*! | D: -18% | E: 7%
CCCC(=O)NCCCCNC(=O)CCC
  A: 0% | B: -6% | C: -6% | D: 1% | E: 1%
COCCN(C(=O)Cc1ccc(OC)c(OC)c1)c1nc(-c2cc(OC)ccc2OC)cs1
  A: -1% | B: ? | C: 18µM* | D: 18% | E: .
COc1ccc(CC(=O)N(CC2CCCO2)c2nc3ccccc3s2)cc1 (stereo not drawn)
  A: -25% | B: 13µM* | C: ? | D: 2% | E: 0%
COc1ccc(-c2csc(N(CC3CCCO3)C(=O)c3cccs3)n2)cc1 (stereo not drawn)
  A: -1% | B: ? | C: 12µM* | D: 2% | E: -4%
COc1ccc(OC)c(-c2csc(N(C)C(=O)Cc3ccccc3)n2)c1
  A: -4% | B: -19% | C: 10% | D: -1% | E: 1%
COc1ccc(OC)c(-c2csc(N(CC3CCCO3)C(=O)C3CCCCC3)n2)c1 (stereo not drawn)
  A: -6% | B: 18µM* | C: 21µM* | D: 2% | E: -1%
CC(O)(CS(=O)(=O)Cc1ccccc1)c1ccccc1 (stereo not drawn)
  A: -1% | B: 11% | C: -3% | D: 1% | E: .
CCN(CC)CCCN(C(=O)c1cccs1)c1nc(-c2ccc(OC)cc2)cs1
  A: -15% | B: 21µM* | C: 18µM* | D: . | E: 4%
COc1ccc(-c2csc(N(C)C(=O)c3cccs3)n2)cc1
  A: -42% | B: -1% | C: 10% | D: 4% | E: 0%
CCN(CC)CCCN(C(=O)c1cccc(C)c1)c1nc(-c2ccc(OC)cc2)cs1
  A: 16% | B: 7.3µM* | C: -59% | D: -9% | E: .
CCN(CC)CCCN(C(=O)c1ccc(Br)cc1)c1nc(-c2ccc(OC)cc2)cs1
  A: 22% | B: ? | C: -104% | D: -6% | E: .
O=C(Cn1nc(C(=O)O)c2ccccc2c1=O)Nc1cccc(S(=O)(=O)N2CCCCCC2)c1
  A: . | B: -6% | C: -11% | D: 4% | E: 1%
Cc1ccsc1CCN1C(=O)N(c2ccc(F)cc2)C(=O)C1CC(=O)Nc1ccccc1 (stereo not drawn)
  A: 10% | B: 23µM* | C: ? | D: . | E: -4%
CCNC(=O)CC1C(=O)N(c2ccc(C)cc2)C(=O)N1CCc1sccc1C (stereo not drawn)
  A: -5% | B: -6% | C: -5% | D: 13% | E: 5%
Cc1ccsc1CCN1C(=O)N(c2ccccc2)C(=O)C1CC(=O)Nc1ccc(F)cc1 (stereo not drawn)
  A: ? | B: 15µM* | C: ? | D: . | E: 1%
COc1ccc2c(c1)-c1nc(-n3ncc(C(=O)NCc4cccnc4)c3C3CC3)ncc1CC2
  A: . | B: 23µM* | C: -6%[9.04 µM] | D: . | E: .
COc1ccc2c(c1)-c1nc(-n3ncc(C(=O)NC[C@@H]4CCCN5CCCC[C@H]45)c3C)ncc1CC2
  A: . | B: 9.2µM* | C: ? | D: . | E: .
